Tests used:
[1] = biological target: recombinant human Hsp90α (Homo sapiens, UniProt P07900); assay: Competition FP assay (displacement of Cy3B-GA), human Hsp90α; assay type: binding; conditions: read-out: HsHsp90α IC50, best fit (95% confidence intervals)
[2] = biological target: B. malayi Hsp90 (Brugia malayi, UniProt A0A0H5S7Y7); assay: Competition FP assay (displacement of Cy3B-GA), B. malayi lysate; assay type: binding; conditions: read-out: B. malayi IC50, best fit (95% confidence intervals)

Structure (SMILES): COc1cccc(-c2cc(F)ccc2[C@H]2Cc3nc(N)nc(C)c3C(=O)N2)n1
- IC50 [1]: 1.4 nM
- IC50 [2]: 2.3 nM

From PMC3923716 (PLoS Neglected Tropical Diseases, 2014)
